Measurements published in patent publication US20140360376A1, “RECOVERY OF HIGHER ALCOHOLS FROM DILUTE AQUEOUS SOLUTIONS” (GEVO, INC., priority 2007, published 2014).

Columns and labels:
[1] = Phase separation of 7% butanol or isobutanol solutions by addition of glucose; type: physicochemical; conditions: 7% alcohol, glucose 20% (w/w), 25° C.
Method: (§1) This example illustrates the induction of phase separation of butanol or isobutanol in water solutions by addition of glucose. […] The light and heavy phases were analyzed for alcohol content for each experiment. All experiments were carried out at 25° C. The distribution coefficient was calculated by division of the concentration of butanol in the light phase by the concentration of butanol in the heavy phase.

[2] = Enrichment by glucose addition followed by contact with gasoline; type: physicochemical
Method: (§2) These solutions were then mixed with gasoline. The gasoline used was commercial grade with a 95 octane rating. At equilibrium, phase separation was observed forming an upper alcohol rich phase (light phase) and a lower alcohol lean phase (heavy phase). Both phases were analyzed for alcohol and water content. The distribution coefficient of the alcohol was calculated for each experiment by dividing the alcohol concentration in the light phase by the concentration in the heavy phase. The distribution coefficient for water was calculated accordingly. The Enrichment factor was calculated by dividing the distribution coefficient of alcohol by the distribution coefficient of water. All experiments were carried out at 24° C.

[3] = n-butanol-water, cited from earlier work
[4] = Enrichment of C3-C6 alcohols from aqueous solutions by contact with octane; type: physicochemical; conditions: 24° C., equilibrium
Method: Several aqueous solutions were prepared for each alcohol, differing in their alcohol concentrations, all of which were sub-saturated. […] The phase ratio between the aqueous solution and the solvent differed from one case to the other. Mixing was continued until equilibrium was reached. At equilibrium, phase separation could be observed forming an upper, alcohol-rich phase (light phase) and a lower, alcohol-lean phase (heavy phase). Both phases were analyzed for alcohol and water content. […] The water content of the organic phases was determined by the Karl-Fischer method. These analytical methods were also used for the analyses in the other examples.
The distribution coefficient of the alcohol was calculated for each experiment by dividing the alcohol concentration in the light phase by the alcohol concentration in the heavy phase. Similarly, the distribution coefficient for water was calculated by dividing the water concentration in the light phase by the water concentration in the heavy phase. The enrichment factor was calculated by dividing the distribution coefficient of alcohol by the distribution coefficient of water. In addition, the alcohol to water ratio (w/w) was calculated for the light phase.

[5] = Enrichment of C3-C6 alcohols from aqueous solutions by contact with gasoline; type: physicochemical; conditions: 24° C.
Method: The gasoline used was commercial grade with a 95 octane rating. […] Both phases were analyzed for alcohol and water content. The distribution coefficient of the alcohol was calculated for each experiment by dividing the alcohol concentration in the light phase by the concentration in the heavy phase. Similarly, the distribution coefficient for water was calculated by dividing the water concentration in the light phase by the water concentration in the heavy phase. The enrichment factor was calculated by dividing the distribution coefficient of alcohol by the distribution coefficient of water. All experiments were carried out at 24° C.

[6] = Enrichment by calcium chloride addition followed by contact with gasoline; type: physicochemical
Method: as §2, with “observed,” for “observed”, “contents.” for “content.”, “phase.” for “phase. The distribution coefficient for water was calculated accordingly. The Enrichment factor was calculated by dividing the distribution coefficient of alcohol by the distribution coefficient of water.”

[7] = Phase separation of 4% butanol or isobutanol solutions by addition of calcium chloride; type: physicochemical; conditions: 4% alcohol, calcium chloride 15% (w/w), 25° C.
Method: as §1, with “calcium chloride addition.” for “addition of glucose.”

[8] = gasoline, 20% (w/w) glucose, 24° C.
[9] = gasoline, 15% (w/w) calcium chloride, 24° C.

1-butanol [BuOH]
Alcohol in heavy phase (% w/w) [1]: 4.3 % w/w
Alcohol in light phase (% w/w) [1]: 85 % w/w
Concentration in the light phase compared to the starting solution [1]: approximately 12 fold
Distribution coefficient ([1]; light/heavy phase): 20
Increase of alcohol concentration in the gasoline phase in the presence of glucose ([2]; compared with example 3 (no glucose)): 1.6 fold
Alcohol Wt % in heavy phase [2, 8]: 1.5 Wt %
Alcohol Wt % in light phase [2, 8]: 1.9 Wt %
Alcohol Da ([2]; light/heavy phase, gasoline, 20% (w/w) glucose, 24° C.): 1.27
Butanol Wt % in heavy phase ([3]; 5° C.): 9.55 Wt %
Butanol Wt % in light phase ([3]; 5° C.): 80.38 Wt %
Butanol Wt % in heavy phase ([3]; 10° C.): 8.91 Wt %
Butanol Wt % in light phase ([3]; 10° C.): 80.33 Wt %
Butanol Wt % in heavy phase ([3]; 15° C.): 8.21 Wt %
Butanol Wt % in light phase ([3]; 15° C.): 80.14 Wt %
Butanol Wt % in heavy phase ([3]; 20° C.): 7.81 Wt %
Butanol Wt % in light phase ([3]; 20° C.): 79.93 Wt %
Butanol Wt % in heavy phase ([3]; 25° C.): 7.35 Wt %
Butanol Wt % in light phase ([3]; 25° C.): 79.73 Wt %
Butanol Wt % in heavy phase ([3]; 30° C.): 7.08 Wt %
Butanol Wt % in light phase ([3]; 30° C.): 79.38 Wt %
Butanol Wt % in heavy phase ([3]; 35° C.): 6.83 Wt %
Butanol Wt % in light phase ([3]; 35° C.): 78.94 Wt %
Butanol Wt % in heavy phase ([3]; 40° C.): 6.6 Wt %
Butanol Wt % in light phase ([3]; 40° C.): 78.59 Wt %
Butanol Wt % in heavy phase ([3]; 50° C.): 6.46 Wt %
Butanol Wt % in light phase ([3]; 50° C.): 77.58 Wt %
Butanol Wt % in heavy phase ([3]; 60° C.): 5.62 Wt %
Butanol Wt % in light phase ([3]; 60° C.): 76.38 Wt %
Butanol Wt % in heavy phase ([3]; 70° C.): 6.73 Wt %
Butanol Wt % in light phase ([3]; 70° C.): 74.79 Wt %
Butanol Wt % in heavy phase ([3]; 80° C.): 6.89 Wt %
Butanol Wt % in light phase ([3]; 80° C.): 73.53 Wt %
Alcohol Wt % in heavy phase [4]: 4.6 Wt % and 0.65 Wt % and 1.8 Wt %
Alcohol Wt % in light phase [4]: 2.5 Wt % and 0.11 Wt % and 0.29 Wt %
Alcohol Wt % in heavy phase ([5]; equilibrium): 3.8 Wt % and 0.55 Wt % and 1.64 Wt %
Alcohol Wt % in light phase ([5]; equilibrium): 7.3 Wt % and 0.34 Wt % and 1.27 Wt %
Enrichment factor ([5]; Da/Dw): 540 and >1000 and 770
Increase of alcohol concentration in the gasoline phase in the presence of calcium chloride ([6]; compared with example 3 (no calcium chloride)): 3 fold
Alcohol Wt % in heavy phase [6, 9]: 0.86 Wt %
Alcohol Wt % in light phase [6, 9]: 2.6 Wt %
Alcohol Da ([6]; light/heavy phase, gasoline, 15% (w/w) calcium chloride, 24° C.): 3.0
Alcohol in heavy phase (% w/w) [7]: 2.3 % w/w
Alcohol in light phase (% w/w) [7]: 90 % w/w
Concentration in the light phase compared to the starting solution [7]: approximately 23 fold
Distribution coefficient ([7]; light/heavy phase): 39

Several values for one entry are separate records, joined by “and”; a condition that tells them apart may be missing. Identical values can stand only once. Like-named read-outs stand apart in the source and are kept apart here.
